The target of assay [1] is His-tagged KRAS G12D protein (Homo sapiens (Human), UniProt P01116, G12D). The assay can be described thus: KRAS G12D TR-FRET Assay. The settings on record: read-out: KRAS G12D Binding IC50. As for the experimental part: Compounds of interest were prepared in a dose-response titration in DMSO, and 80 nL were added via Labcyte Echo to each well of a 384-well plate (Perkin Elmer 6008280). The His-tagged KRAS G12D protein (Amgen) was diluted to 20 nM in Assay Buffer (20 mM HEPES, pH 7.4, 10 mM MgCl2, 50 mM NaCl, 0.1% BSA, 0.01% Tween-20, 10 μM GDP) and 2 μL was added to the appropriate wells of the 384-well plate. The plate was incubated for 30 minutes at room temperature. Biotinylated KRPep-2d substrate (Amgen) was diluted to 20 nM in Assay Buffer and 2 μL was added to all wells and incubated for 1 hour at room temperature. Detection Reagent (0.4 nM LANCE Eu-W1024 Anti-6×His (Perkin Elmer AD0401), 5 nM streptavidin-d2 (Cisbio 610SADLA)) was prepared in Assay Buffer, then 4 μL was added to the plate and incubated for 1 hour at room temperature. Plates were read using PerkinElmer EnVision (ex: 320 nm, em1: 665 nm, em2: 615 nm) and em1/em2 data was used to generate curve fits using a 4-parameter logistic model to calculate IC50 values.

Chains of the proteins cited; added tags and fusions are not shown. A line that says so, or that is headed by a name, gives the form on record, which may keep a tag or linker. Residues count along the entry.
UniProt P01116, 1-164 with tags or gaps G12D limits assumed: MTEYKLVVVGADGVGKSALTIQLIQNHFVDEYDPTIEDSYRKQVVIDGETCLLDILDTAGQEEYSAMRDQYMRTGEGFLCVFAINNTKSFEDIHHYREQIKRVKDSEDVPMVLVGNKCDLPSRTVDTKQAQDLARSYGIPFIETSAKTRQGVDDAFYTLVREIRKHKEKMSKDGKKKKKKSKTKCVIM
UniProt P01116, 1-164 with tags or gaps C118A/G12D limits assumed: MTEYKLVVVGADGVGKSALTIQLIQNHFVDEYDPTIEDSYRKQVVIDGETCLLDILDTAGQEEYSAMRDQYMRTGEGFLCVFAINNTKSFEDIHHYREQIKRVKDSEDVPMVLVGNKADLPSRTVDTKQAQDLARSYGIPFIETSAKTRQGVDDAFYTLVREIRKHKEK

For assay [2], the target named is GDP-bound KRAS protein (aa 1-169), containing both G12D and C118A amino acid substitutions (Homo sapiens (Human), UniProt P01116, C118A/G12D). Put plainly: KRAS G12D Coupled Nucleotide Exchange Assay. Format: biochemical. The conditions noted are these: read-out: KRAS G12D Coupled Exchange IC50. As for the experimental part:
KRAS G12D Coupled Nucleotide Exchange Assay
Following compound pre-incubation, purified SOS protein (aa 564-1049) and GTP (Roche 10106399001) were added to the assay wells and incubated for an additional 30 min. To determine the extent of inhibition of SOS-mediated nucleotide exchange, purified GST-tagged cRAF (aa 1-149), nickel chelate AlphaLISA acceptor beads (PerkinElmer AL108R), and AlphaScreen glutathione donor beads (PerkinElmer 6765302) were added to the assay wells and incubated for 10 minutes. The assay plates were then read on a PerkinElmer EnVision Multilabel Reader, using AlphaScreen® technology, and data were analyzed using a 4-parameter logistic model to calculate IC50 values.

In assay [3] the test system is Phosphorylation of ERK1/2 in AsPC-1 cells. The assay can be described thus: Phospho-ERK1/2 MSD Assay. The conditions noted are these: read-out: 2 h p-ERK (AsPC-1 cells), IC50. As for the experimental part:
AsPC-1 (ATCC® CRL-1682™) cells were cultured in RPMI 1640 Medium (ThermoFisher Scientific 11875093) containing 10% fetal bovine serum (ThermoFisher Scientific 16000044) and 1× penicillin-streptomycin-glutamine (ThermoFisher Scientific 10378016). Sixteen hours prior to compound treatment, AsPC-1 cells were seeded in 96-well cell culture plates at a density of 25,000 cells/well and incubated at 37° C., 5% CO2. A compound dose-response titration was diluted in growth media, added to appropriate wells of a cell culture plate, and then incubated at 37° C., 5% CO2 for 2 hours. Following compound treatment, cells were washed with ice-cold Dulbecco's phosphate-buffered saline, no Ca^2+ or Mg^2+ (ThermoFisher Scientific 14190144), and then lysed in RIPA buffer (50 mM Tris-HCl pH 7.5, 1% Igepal, 0.5% sodium deoxycholate, 150 mM NaCl, and 0.5% sodium dodecyl sulfate) containing protease inhibitors (Roche 4693132001) and phosphatase inhibitors (Roche 4906837001). Phosphorylation of ERK1/2 in compound-treated lysates was assayed using Phospho-ERK1/2 Whole Cell Lysate kits (Meso Scale Discovery K151DWD) according to the manufacturer's protocol. Assay plates were read on a Meso Scale Discovery Sector Imager 6000, and data were analyzed using a 4-parameter logistic model to calculate IC50 values.

For a further assay, the system named is AsPC-1 cells. The assay can be described thus: AsPC-1 CTG Assay (CellTiter-Glo cell viability). The settings on record: read-out: G12D/C/V Cell Proliferation CTG (72 h) AsPC-1; AsPC-1, 72 h; first value of the cell. As for the experimental part: AsPC-1 and SW620 CTG Assay Protocols
AsPC-1 (human pancreatic adenocarcinoma; ATCC CRL-1682) or SW620 (human colon adenocarcinoma; ATCC CCL-227) cells were cultured in RPMI 1640 medium containing 10% fetal bovine serum and 1× penicillin/streptomycin/L-glutamine. Cells were seeded in 384-well plates at a density of 3.33E+04 cells/mL and incubated at 37° C., 5% CO2, overnight. Serially-diluted compound or DMSO was added to the cells, and plates were incubated at 37° C., 5% CO2 for 72 h. Cell viability was measured using a CellTiter-Glo® Luminescent Cell Viability Assay kit (Promega) according to the manufacturer's protocol. The luminescence signal of treated samples was normalized to DMSO control, and data were analyzed using a 4-parameter logistic model to calculate IC50 values.
In general terms: In ATP-based viability assays light output follows the ATP content of the culture.

Consider `Cc1cc2[nH]ncc2c2c1C1CC1COC(=O)O[C@@H]1CCCN(C1)c1nc(OC[C@@]34CCCN3C[C@H](F)C4)nc3c(F)c-2ncc13` (single isomer, unassigned) [120], for which the figures for the IC50 in assay [1], in assay [2] and in assay [3] were 10 nM, 8 nM and 229 nM, respectively.
In the case of `O=C1OCC2CC2c2c(Cl)cc3[nH]ncc3c2-c2ncc3c(nc(OC[C@@]45CCCN4C[C@H](F)C5)nc3c2F)N2CCC[C@H](C2)O1` (single isomer, unassigned) [118], the IC50 came out at 630 nM in the assay on AsPC-1 cells, 7 nM in assay [1], 4 nM in assay [2] and 110 nM in assay [3].
For `O=C1OCC2CC2c2c(Cl)cc3[nH]ncc3c2-c2ncc3c(nc(OC[C@@]45CCCN4C[C@H](F)C5)nc3c2F)N2CCC[C@H](C2)O1` (single isomer, unassigned) [117], the IC50 in assay [1] was 569 nM; in assay [2], 413 nM.
Regarding `Cc1cc2[nH]ncc2c2c1C1CC1COC(=O)O[C@@H]1CCCN(C1)c1nc(OC[C@@]34CCCN3C[C@H](F)C4)nc3c(F)c-2ncc13` (single isomer, unassigned) [119], the IC50 stood at 2120 nM in assay [1] and 1860 nM in assay [2].
